From PubChem
CDK5 p35 inh – CDK5/p35 (human) kinase inhibition; actives 0.01% (n = 330,000); Recombinant CDK5/p35, ADP-Glo luminescence, 60 min; inhibition, % at 10 µM;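 active = highest replicate inhibition of at least 50% and at least 75% of replicates reaching 50%; inconclusive = only one of the two criteria met; inactive = both criteria failed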
Rtt109 Vps75 – C. albicans Rtt109 histone acetyltransferase inhibition; Q5AAJ8; purified Rtt109/Vps75, ThioGlo CoA-SH fluorescence, 4 h; inhibition, % at 34.9 µM; actives 0.16% (n = 330,000); AID 540336;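 active = inhibition of at least 50% in every replicate; inconclusive = best replicate reaches 50% inhibition but some replicates fall short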
Statin myotox sup – suppression of simvastatin myotoxicity; C2C12 myotubes + simvastatin, ATP luminescence, 48 h; scaled: DMSO 0, geranylgeraniol control 100; rescue of ATP level, % at 7.49 µM; actives 0.78% (n = 330,000); AID 602340;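 active = mean ATP rescue above about 67%, or every replicate alone reaching that limit, limit read from the data, passing the limit was not always enough; inconclusive = no clear call, values can overlap the other calls; inactive = mean under the limit and some replicate under it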;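 note: myotubes were challenged with 10 µM simvastatin during compound exposure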
Cneo AK release – causes C. neoformans cell lysis. adenylate kinase release luminescence, 4 h; normalised: neutral wells 0, clomiphene wells 100. lysis activity, % at 15 µM. actives 0.2% (n = 360,000). AID 651654;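 active = mean lysis activity across replicates of at least 80%, whatever share of replicates individually reach that level; inactive = mean lysis activity below 80%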
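Assay system: log-phase C. neoformans yeast / Quantity: yeast cell density of 5 × 10^6 cells/mL / Medium: fresh YPD growth medium / Compound: single dose / Timing: static 4 h at 37 °C with compound, 1 h detection / Measured by: adenylate kinase release luminescence / Read-out: lysis from increased AK signal / Benchmarks: Clomiphene as positive lysis control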
UUG fidelity – yeast start codon fidelity modulation. S. cerevisiae UUG-firefly luciferase reporter, luminescence/redox ratio. activity score, % at 18.7 µM. 0.13% of 350,000 active;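 active = replicate mean at a twofold rise or more, about +100% in these data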;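 also: firefly luciferase made from a UUG start codon reports start codon fidelity; reporter light over untreated wells divided by growth signal over untreated wells; some hits fall short of that in this replicate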
Each line names hits and unclear results; the compound was inactive in the other large screens. Rows were chosen to be rich in hits. Some 1% of all compounds tested hit in one or more screens of this group.

Cc1ccc(S(=O)(=O)c2c(COC(=O)c3ccccc3Cl)c(-c3ccccc3)nn2C)cc1	Statin myotox sup 116
COc1ccc(NC(=O)c2ccc(-c3ccccc3)cc2)cc1S(=O)(=O)N1CCOCC1	none (no result: Statin myotox sup, Cneo AK release, UUG fidelity)
COc1ccc(C(=O)N2CC=C(c3ccccc3)CC2)cc1S(=O)(=O)N1CCOCC1	Statin myotox sup 82
CCOC(=O)c1c(C)[nH]c(C2=NNC(=NC3CC3)SC2)c1C	Rtt109 Vps75 71 (no result: Statin myotox sup, Cneo AK release, UUG fidelity)
Cc1ccc(S(=O)(=O)N(C)C[C@H]2OCCCC[C@H](C)Oc3ccc(NC(=O)Nc4c(C)noc4C)cc3C(=O)N([C@H](C)CO)C[C@@H]2C)cc1	none (no result: CDK5 p35 inh, Rtt109 Vps75, Statin myotox sup)
COc1ccc(S(=O)(=O)Nc2ccc3c(c2)C(=O)N([C@H](C)CO)C[C@H](C)[C@@H](CN(C)C(=O)Nc2ccc4c(c2)OCO4)OCCCC[C@@H](C)O3)cc1	none (no result: CDK5 p35 inh, Rtt109 Vps75, Statin myotox sup)
O=C(CSC1=NCCN1)Nc1ccccc1[N+](=O)[O-]	none (no result: Statin myotox sup, Cneo AK release, UUG fidelity)
O=C(CSC1=NCCN1)Nc1cccc([N+](=O)[O-])c1	Rtt109 Vps75 113
COc1ccc(NS(=O)(=O)c2ccc(SC)cc2)cc1	none (no result: Rtt109 Vps75)
CSc1ccc(S(=O)(=O)Nc2ccc(F)cc2)cc1	Statin myotox sup 93 (no result: Cneo AK release, UUG fidelity)
C[C@H](CO)N1C[C@H](C)[C@H](CN(C)S(=O)(=O)c2ccc(F)cc2)Oc2c(NS(=O)(=O)c3cn(C)cn3)cccc2C1=O	none (no result: CDK5 p35 inh, Rtt109 Vps75)
COc1ccc(C(=O)Nc2cccc(/C=C(\CCC(=O)O)c3nc4ccccc4s3)c2)cc1	none
O=C(O)C/C(=C\c1cccc(NC(=O)c2ccccc2Cl)c1)c1nc2ccccc2s1	Cneo AK release 112
COc1ccc(-[n+]2c(C)cc(/C=C3\Sc4ccccc4N3C)cc2C)cc1	Rtt109 Vps75 74 (no result: Statin myotox sup, Cneo AK release, UUG fidelity)
CCCNC(=O)C[C@H]1CC[C@@H]2[C@H](COc3ccc(NC(=O)NCC)cc3C(=O)N2C)O1	none (no result: CDK5 p35 inh, Rtt109 Vps75)
C[C@H](CO)N1C[C@H](C)[C@@H](CN(C)C(=O)Nc2ccc3c(c2)OCO3)Oc2ccc(NS(C)(=O)=O)cc2C1=O	none (no result: CDK5 p35 inh, Rtt109 Vps75)
CC1=CC(C)(C)N=C(Nc2nc(C)c3cc(C)cc(C)c3n2)N1	none
CC1=CC(C)(C)N=C(NC#N)N1	Statin myotox sup 104
CCCCNC(=S)N/N=C/c1ccc(C#N)cc1	Cneo AK release 86 (no result: Statin myotox sup)
CC(=O)O[C@@H]1[C@H]2[C@@H](C[C@@H](C)[C@@H]3C=CC(=O)[C@@]13C)OC(=O)[C@@H]2C	Statin myotox sup 115
CC(=O)Nc1c(C(=O)O)[nH]c2ccccc12	Statin myotox sup 99
Cc1cc(C)cc(NC(=O)NC(C)C2CCCO2)c1 (configuration not stated)	Rtt109 Vps75 56 (no result: Statin myotox sup, Cneo AK release, UUG fidelity)
CC(NC(=O)Nc1ccc2c(c1)OCO2)C1CCCO1 (configuration not stated)	none
CCNC(=O)/C(=C/c1ccc2c(c1)OCO2)NC(=O)c1ccc(Br)cc1	Statin myotox sup 79
C[C@@H]1CCCCO[C@H](CN(C)Cc2ccc(C(=O)O)cc2)[C@@H](C)CN([C@H](C)CO)C(=O)c2cc(NC(=O)Cc3ccccc3)ccc2O1	none (no result: CDK5 p35 inh, Rtt109 Vps75, Statin myotox sup)
CCOc1cc(/C=N/NC(=O)CCCC(=O)NC2CCCCC2)ccc1O	Cneo AK release 102 (no result: Statin myotox sup)
CO[C@H]1CN(C)C(=O)c2ccc(NS(C)(=O)=O)cc2OC[C@H](C)N(C(=O)c2ccc3c(c2)OCO3)C[C@@H]1C	none (no result: CDK5 p35 inh, Rtt109 Vps75, UUG fidelity)
O=c1c2ccccc2sn1-c1cc(S(=O)(=O)N2CCOCC2)ccc1N1CCOCC1	Rtt109 Vps75 122
O=c1c2ccccc2sn1-c1cc(S(=O)(=O)N2CCOCC2)ccc1N1CCCC1	none
O=C(NCCCN1CCOCC1)[C@H]1N[C@H]2c3ccc(C4=CCCC4)c(=O)n3C[C@H]2[C@@H]1CO	none (no result: CDK5 p35 inh, Rtt109 Vps75, UUG fidelity)
CCn1c(SCC(=O)NCc2cccs2)nnc1-c1ccco1	Statin myotox sup 105
CCn1c(SCC(=O)Nc2cc(OC)c(OC)c(OC)c2)nnc1-c1cccs1	Rtt109 Vps75 63
O=C(CSc1nnc(-c2ccco2)n1Cc1ccccc1)c1ccccc1	none
CCn1c(SCC(=O)NCc2cccs2)nnc1-c1ccncc1	none
Cc1ccc(C(=O)CSc2nnc(-c3ccco3)n2Cc2ccccc2)cc1	Statin myotox sup 83
CN1[C@@H]2Cn3c(ccc(-c4cccnc4)c3=O)[C@H]1[C@@H](C(=O)N1CCC(Cc3ccccc3)CC1)[C@@H]2CO	none (no result: CDK5 p35 inh, Rtt109 Vps75, UUG fidelity)
Cc1ccc2c(c1)-c1c(cnn1CC(=O)O)CO2	Statin myotox sup 92
COc1ccccc1N1CCN(C(=O)c2cc(-c3ccc(F)cc3)[nH]c2C)CC1	Statin myotox sup 119
CS(=O)(=O)N1CCc2cc(C(=O)N3CCOCC3)ccc21	Statin myotox sup 98
COc1ccc(N2CCN(C(=O)c3ccc4c(c3)CCN4S(=O)(=O)c3ccccc3)CC2)cc1	Statin myotox sup 134
COc1ccc(OCCNS(=O)(=O)c2ccc3oc4ccccc4c3c2)cc1	Statin myotox sup 101
C=C1CCN(c2ccc(C(=O)NCc3ccc(C)cc3)cc2[N+](=O)[O-])CC1	Statin myotox sup 120
COc1ccc(NC(=O)C2CCCCN2N)cc1OC (configuration not stated)	none (no result: Statin myotox sup)
COc1ccc(NC(=O)C2CCCN2c2ccc(OC)c(OC)c2)cc1OC (configuration not stated)	Statin myotox sup 80
COc1ccc(-c2ccc(CCC(=O)O)o2)cc1	Rtt109 Vps75 58 (no result: Statin myotox sup, Cneo AK release, UUG fidelity)
O=C(O)CCc1ccc(-c2ccc(Cl)cc2)o1	none (no result: Statin myotox sup)
CC(C)CC#Cc1cnc2c(c1)C(=O)N([C@@H](C)CO)C[C@H](C)[C@H](CN(C)C(=O)c1cccnc1)O2	none (no result: CDK5 p35 inh, Rtt109 Vps75)
O=C1CCCn2cc(nn2)COC[C@@H](Cc2ccccc2)N1	none (no result: CDK5 p35 inh, Rtt109 Vps75, Statin myotox sup, UUG fidelity)
COc1ccc(CNC(=O)CN(C(=O)c2csnn2)c2ccccc2F)cc1	none
COc1ccc(CNC(=O)CN(C(=O)c2csnn2)c2cccc3c2CCCC3)cc1	Statin myotox sup 73
O=C1c2ccccc2C(=O)N1CCC(c1ccc(F)cc1)c1ccco1 (configuration not stated)	Statin myotox sup 77
C[C@H](CO)N1C[C@H](C)[C@H](CN(C)Cc2ccccc2)Oc2ccc(NC(=O)CCCCCC(=O)Nc3ccccc3N)cc2CC1=O	Statin myotox sup 80 (no result: CDK5 p35 inh, Rtt109 Vps75)
C[C@@H]1CN([C@@H](C)CO)C(=O)Cc2cc(NC(=O)CCCCCC(=O)Nc3ccccc3N)ccc2O[C@H]1CN(C)Cc1ccc(C(F)(F)F)cc1	Statin myotox sup inconclusive (no result: CDK5 p35 inh, Rtt109 Vps75)
C[C@H]1CN([C@@H](C)CO)C(=O)Cc2cc(NC(=O)CCCCCC(=O)Nc3ccccc3N)ccc2O[C@H]1CN(C)Cc1ccc(Oc2ccccc2)cc1	Statin myotox sup 104 (no result: CDK5 p35 inh, Rtt109 Vps75)
C[C@H]1CN([C@@H](C)CO)C(=O)Cc2cc(NC(=O)CCCCCC(=O)Nc3ccccc3N)ccc2O[C@H]1CN(C)Cc1ccc(Cl)c(Cl)c1	Statin myotox sup 105 (no result: CDK5 p35 inh, Rtt109 Vps75)
C[C@H](CO)N1C[C@H](C)[C@H](CN(C)Cc2ccc(Cl)c(Cl)c2)Oc2ccc(NC(=O)CCCCCC(=O)Nc3ccccc3N)cc2C1=O	none (no result: CDK5 p35 inh, Rtt109 Vps75)
